# Source: US20010039287A1, “AROMATIC SULFONE HYDROXAMIC ACID METALLOPROTEASE INHIBITOR” (priority 1997, published 2001)
# Counter-ions that a name gives are not always drawn.
# How the values were obtained:
# Assay in all cases: biochemical
# recombinant human MMP-13 = recombinant human MMP-13 (Homo sapiens, UniProt P45452)
# recombinant human MMP-1 = molecular target: T1, recombinant human MMP-1 (Homo sapiens, UniProt P03956)
# T1 construct: made in house; host or cells: transfected HT-1080 cells (provided by Dr. Harold Welgus, Washington University)
# T1 sequence (P03956 100-469): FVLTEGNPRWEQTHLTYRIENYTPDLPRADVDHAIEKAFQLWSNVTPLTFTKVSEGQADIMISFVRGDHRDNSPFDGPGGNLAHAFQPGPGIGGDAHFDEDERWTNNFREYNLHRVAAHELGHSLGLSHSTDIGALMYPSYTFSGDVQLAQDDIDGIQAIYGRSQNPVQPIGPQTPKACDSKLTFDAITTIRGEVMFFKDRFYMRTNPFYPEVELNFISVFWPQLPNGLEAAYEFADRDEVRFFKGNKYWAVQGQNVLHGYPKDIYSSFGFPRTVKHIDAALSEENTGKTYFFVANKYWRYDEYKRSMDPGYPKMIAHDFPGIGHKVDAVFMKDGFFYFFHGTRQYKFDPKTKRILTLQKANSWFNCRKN
# recombinant human MMP-2 = molecular target: T2, recombinant human MMP-2 (Homo sapiens, UniProt P08253); settings: MMP-2 IC50 (nM), Inhibition Table B
# T2 sequence (P08253 110-660): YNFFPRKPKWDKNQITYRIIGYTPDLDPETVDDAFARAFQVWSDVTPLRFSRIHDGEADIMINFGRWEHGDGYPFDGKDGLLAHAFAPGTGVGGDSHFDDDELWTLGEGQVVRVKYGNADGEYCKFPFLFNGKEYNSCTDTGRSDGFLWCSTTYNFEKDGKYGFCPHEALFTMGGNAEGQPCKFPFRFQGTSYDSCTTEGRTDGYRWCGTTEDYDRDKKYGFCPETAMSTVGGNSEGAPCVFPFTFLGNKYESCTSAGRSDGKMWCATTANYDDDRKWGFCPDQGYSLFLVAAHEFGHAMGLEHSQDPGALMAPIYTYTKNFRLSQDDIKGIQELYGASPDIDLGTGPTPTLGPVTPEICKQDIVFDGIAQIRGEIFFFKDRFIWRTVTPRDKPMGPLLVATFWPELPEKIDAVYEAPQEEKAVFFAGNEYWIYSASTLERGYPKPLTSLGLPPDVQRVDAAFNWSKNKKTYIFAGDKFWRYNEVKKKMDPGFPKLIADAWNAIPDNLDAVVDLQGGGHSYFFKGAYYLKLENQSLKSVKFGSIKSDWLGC
SMILES,IC50 (recombinant human MMP-13) [nM],IC50 (recombinant human MMP-1) [nM],IC50 (recombinant human MMP-2) [nM]
C#CCN1CCC(C(=O)NO)(S(=O)(=O)c2ccc(Oc3ccc(OC)cc3)cc2)CC1 [Example 15],0.4,,
"O=C(NO)C1(S(=O)(=O)c2ccc(Oc3cccc(Cl)c3)cc2)CCOCC1 [Example 101, 4-[[4-(3-chlorophenoxy)-phenyl]sulfonyl]tetrahydro-N-hydroxy-2H-pyran-4-carboxamide]",0.45,1800,0.3
O=C(NO)C1(S(=O)(=O)c2ccc(Oc3ccc(OC(F)(F)F)cc3)cc2)CCOCC1 [Example 69],,1140,
"O=C(NO)C1(S(=O)(=O)c2ccc(Oc3ccccc3)cc2)CCOCC1 [Example 94, Tetrahydro-N-hydroxy-4-[(4-phenoxyphenyl)sulfonyl]-2H-pyran-4-carboxamide]",,268,
"O=C(NO)C1(S(=O)(=O)c2ccc(Oc3ccc(Cl)c(Cl)c3)cc2)CCOCC1 [Example 71, 4-[[4-(3,4-dichlorophenoxy)-phenyl]sulfonyl]-tetrahydro-N-hydroxy-2H-pyran-4-carboxamide]",0.8,3600,0.35
"O=C(NO)C1(S(=O)(=O)c2ccc(Oc3ccc(Cl)cc3)cc2)CCOCC1 [Example 100, 4-[[4-(4-chlorophenoxy)-phenyl]sulfonyl]-tetrahydro-N-hydroxy-2H-pyran-4-carboxamide]",0.15,435,
"O=C(NO)C1(S(=O)(=O)c2ccc(Oc3ccc4c(c3)OCO4)cc2)CCNCC1 [Example 40, 4-[[4-(1,3-benzodioxol-5-yloxy)phenyl]sulfonyl]-N-hydroxy-4-piperidinecarboxamide, Monohydrochloride]",1.9,4400,0.4
